Source: the NIST ThermoML archive (doi:10.1016/j.jct.2013.01.005)
Numbers after ± are expanded uncertainties.

Assay: activity coefficient (dimensionless); of the first substance listed, at infinite dilution; xn = mol fraction of the nth substance listed
Settings: 101 kPa, Liquid, Chromatography, x1 = 0

Compound | activity coefficient (308.15 K) | activity coefficient (318.15 K) | activity coefficient (328.15 K) | activity coefficient (338.15 K) | activity coefficient (348.15 K) | activity coefficient (358.15 K)
CCCCOCCCC [dibutyl ether] + CCCCC[N+]1(C)CCCCC1.O=S(=O)([N-]S(=O)(=O)C(F)(F)F)C(F)(F)F | 8.04 ± 0.55 | 7.79 ± 0.53 | 7.5 ± 0.51 | 7.29 ± 0.5 | 7.17 ± 0.49 | 6.94 ± 0.47
CCCCOCCCC [dibutyl ether] + CCCCCC[N+]1(C)CCCCC1.O=S(=O)([N-]S(=O)(=O)C(F)(F)F)C(F)(F)F | 6.38 ± 0.43 | 6.25 ± 0.43 | 6.08 ± 0.41 | 5.96 ± 0.41 | 5.81 ± 0.4 | 5.74 ± 0.39
